The source of these data is patent US20230272059A1 (TILLOTTS PHARMA, published 2023).

The chains behind the UniProt entries cited, without tags or fusion partners. Residues count along the entry.
UniProt P01375, 77-233 limits assumed: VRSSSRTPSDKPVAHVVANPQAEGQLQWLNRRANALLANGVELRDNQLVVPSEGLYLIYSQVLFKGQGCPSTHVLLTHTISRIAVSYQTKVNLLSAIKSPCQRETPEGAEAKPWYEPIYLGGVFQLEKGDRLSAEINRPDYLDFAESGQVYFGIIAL

Experiment [1] addresses T1, recombinant human TNFα (human, UniProt P01375 77-233). Nature of the experiment: cell-based or functional assay.
Experiment [2] concerns the target T1, recombinant human TNFα. In words: inhibition ELISA: biotinylated human TNFα pre-incubated with serially diluted infliximab, binding of unblocked TNFα to coated TNFRI-Fc detected. For orientation: ELISA stands for enzyme-linked immunosorbent assay.

B1: infliximab (antibody, V domains shown)
VH: EVKLEESGGGLVQPGGSMKLSCVASGFIFSNHWMNWVRQSPEKGLEWVAEIRSKSINSATHYAESVKGRFTISRDDSKSAVYLQMTDLRTEDTGVYYCSRNYYGSTYDYWGQGTTLTVSS
VL: DILLTQSPAILSVSPGERVSFSCRASQFVGSSIHWYQQRTNGSPRLLIKYASESMSGIPSRFSGSGSGTDFTLSINTVESEDIADYYCQQSHSWPFTFGSGTNLEVKR
For B1, in experiment [1], the “IC50 (read off the curve) (L929 assay, % growth)” value was approximately 0.007 µg/mL. Also, the “IC50 (read off the curve)” value in experiment [2] is approximately 0.05 µg/mL.
